# Ab-91 heavy chain CDR variants: yeast mating affinities

Reference: Engelhart et al. 2022, doi:10.1038/s41597-022-01779-4. File: FLAb, binding data.

Binding partner: SARS-CoV-2 spike HR2 peptide, sequence PDVDLGDISGINAS.

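The starting antibody came from a phage panning campaign against this peptide. AAYL51 was designed without a model: most single CDR substitutions and a random sample of double and triple ones. In AlphaSeq, yeast of one mating type display the scFv and yeast of the other type display the target. Binding brings cells together so that they mate, and sequencing counts the barcode pairs among the diploids. Read counts were normalised to the haploid input and turned into Kd by a linear fit to BCL2-family pairs of known affinity, for each replicate. There are three technical replicates.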

Parent scFv Ab-91: VL joined to VH by three GGGGS repeats. Changes lie in the heavy chain CDRs alone.
VL: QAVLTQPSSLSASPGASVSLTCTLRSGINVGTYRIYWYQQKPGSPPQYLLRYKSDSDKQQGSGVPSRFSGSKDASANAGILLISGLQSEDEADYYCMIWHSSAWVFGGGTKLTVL
VH: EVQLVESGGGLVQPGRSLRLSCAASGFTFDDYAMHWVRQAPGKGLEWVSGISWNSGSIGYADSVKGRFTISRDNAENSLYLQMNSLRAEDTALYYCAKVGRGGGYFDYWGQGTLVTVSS

Substitutions are numbered in sequence along the VH above, starting at 1 (not Kabat).
Numbers give log10(Kd / nM), so 0 is 1 nM and 3 is 1 µM. Smaller is tighter.
Where no diploid with the target was found in that replicate, the entry reads "nd": below detection, most likely a poor binder, though not proof of it.
Three control strains display no target. For library AAYL51, 21% of the pairings with them gave a signal, with a median of 4.54 and one signal in twenty below 3.26, so weak values seen in few replicates may be background. Also given: how often the same scFv was detected with the empty control strains, with their mean in brackets.
For reference, the parent read 1.86 as the reference entry and 0.88 as a member of this library.

changes | replicates, log10 nM | signal with controls
F27R+W53H+Y105C | 4.21 / nd / nd | 0/9
W53N+N54E+R101L | 4.54 / nd / 5.05 | 7/9 (4.89)
W53V+G102C+G104M | nd / 5.25 / nd | 3/9 (5.43)
G50W+F106R+Y108Q | nd / nd / nd | 0/9
M34F+W53Q+G102Q | nd / 3.87 / nd | 0/9
A61F+G102Y+F106P | nd / nd / nd | 0/9
A33D+G50A+Y105Q | nd / nd / nd | 1/9 (3.43)
H35M+I58M+G100M | nd / nd / nd | 0/9
F29N+I58W+V64T | 3.59 / nd / nd | 1/9 (3.57)
D30W+I51L+S57R | nd / 6.13 / nd | 3/9 (4.12)
W53C+S55C+G103K | nd / nd / nd | 0/9
G26Q+T28E+I58P | nd / nd / nd | 1/9 (4.35)
I58S+F106G+Y108H | 2.73 / 3.02 / 3.46 | 1/9 (3.70)
F27H+V64R+G102S | 4.09 / nd / nd | 2/9 (4.17)
G59K+Y105C+D107M | nd / nd / nd | 0/9
H35Y+G50W+I51D | 3.50 / nd / nd | 1/9 (3.54)
S52E+S57N+G100E | nd / nd / nd | 2/9 (3.54)
S52P+Y60K+G102K | nd / nd / 3.86 | 1/9 (4.03)
D62I+V99G+Y108R | nd / nd / nd | 0/9
F29H+M34Y+W53R | nd / 3.71 / 5.32 | 3/9 (4.28)
M34L+W53I+A61R | 5.48 / 4.31 / 5.16 | 5/9 (4.94)
T28E+Y32P+R101N | 4.68 / nd / 3.81 | 2/9 (3.66)
G56H+G59Q+V99N | nd / nd / nd | 1/9 (4.30)
N54V+S55A+G104I | nd / nd / nd | 3/9 (4.64)
G50S+R101I+G102E | nd / nd / nd | 1/9 (4.44)
T28A+Y108S | 1.00 / 0.99 / 0.41 | 7/9 (5.07)
T28H+H35Q+N54R | 6.11 / 4.95 / nd | 1/9 (3.07)
H35W+G56L+F106K | 5.07 / 5.19 / nd | 7/9 (5.25)
A33M+S52W+G103C | nd / nd / nd | 0/9
S55I+S57H+G103A | nd / nd / nd | 0/9
V99D+G102S+G103E | 4.08 / nd / 4.67 | 1/9 (5.00)
S52G+V64D+G100A | 5.23 / 5.71 / 5.72 | 6/9 (4.99)
D30R+Y32L+G56Y | nd / nd / nd | 2/9 (4.41)
A33E+S55V+V99A | nd / nd / nd | 1/9 (1.98)
A33R+W53V+A61T | nd / nd / nd | 0/9
D31L+G56M+G59Y | nd / nd / nd | 0/9
A61D+S63K+G100I | nd / nd / nd | 2/9 (3.70)
G26K+N54I+F106K | 3.20 / 4.69 / nd | 0/9
Y60N+S63D+V99Y | nd / nd / nd | 0/9
I58R+V64Q+Y105T | 5.24 / 5.01 / 4.90 | 4/9 (4.78)
I51C+S52R+S57D | nd / nd / nd | 0/9
N54S+A61S+K65P | 4.74 / 5.44 / 5.53 | 9/9 (5.29)
D30C+G50I+G104Q | nd / 4.49 / nd | 1/9 (3.92)
G26T+D62L | nd / nd / nd | 1/9 (4.15)

The first 4 entries again:

changes | replicates, log10 nM | signal with controls
F27R+W53H+Y105C | 4.21 / nd / nd | 0/9
W53N+N54E+R101L | 4.54 / nd / 5.05 | 7/9 (4.89)
W53V+G102C+G104M | nd / 5.25 / nd | 3/9 (5.43)
G50W+F106R+Y108Q | nd / nd / nd | 0/9